Among the data in patent US10308645B2, “Piperidine oxadiazole and thiadiazole orexin receptor antagonists” (MERCK SHARP & DOHME CORP., priority 2014, dated 2019) are IC50 values, retold here.

Where only a bound is given, the exact number is not on record here.

For the assay, the target named is hOX1R (orexin-1 receptor) (Homo sapiens, UniProt O43613). The experiment in a line: FLIPR Ca2+ Flux Assay, hOX1R. It is filed as cell-based. In general terms: Calcium flux is commonly read through the fluorescence of an indicator in the cells.

Broadly, the IC50 is the concentration that gives 50% inhibition.

For `C[C@@H]1CC[C@@H](c2nsc(C(C)(C)O)n2)CN1C(=O)c1cccnc1OCC(F)(F)F` [Example 38, 2-{3-[(3R,6R)-6-methyl-1-{[2-(2,2,2-trifluoroethoxy)pyridin-3-yl]carbonyl}piperidin-3-yl]-1,2,4-thiadiazol-5-yl}propan-2-ol], the IC50 was greater than 10 µM.
